Source: PubChem BioAssay AID2805 (Sanford-Burnham Center for Chemical Genomics, 2010)
Only a part is listed here, and it is no random draw. The source made the active and inactive calls.

system: intestinal alkaline phosphatase [Mus musculus]; test: mouse intestinal phosphatase enzyme activation – biochemical, luminescence, uHTS, primary screen (AID 2805); details: muIAP, CDP-Star luminescence, 30 min; at 10 µM; active compounds read high; 1 = vehicle-only enzyme signal, 0 = enzyme-free wells
How it was run: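 Assay system: mouse IAP enzyme / Compound: DMSO-dissolved test compounds / Timing: 30 min, room temperature / Measured by: luminescence from enzymatic CDP-Star hydrolysis / Control set: DMSO-only wells, enzyme-free buffer wells as negative control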

Row | SMILES | activation factor
1 | CCC(=O)N(c1ccccc1)C1(COC)CCN(CCc2cccs2)CC1 | inactive: 1.2
2 | CCC(=O)N(c1ccccc1)C1(COC)CCN(CCn2nnn(CC)c2=O)CC1 | inactive: 1.1
